# Earlier results as cited in US20240109972A1, “ANTIBODY AND TAXANE COMBINATION THERAPY” (Genmab A/S, priority 2020, published 2024).
# Test system: SCCHN
# Settings: cetuximab added to platinum and 5-FU vs platinum and 5-FU alone; cited from earlier work
substance,measurement,value
cetuximab,Survival,10.1 months
same,mPFS,3.3 months
